# Measured values published in PMC4042574, “Phenolic Lipids Affect the Activity and Conformation of Acetylcholinesterase from Electrophorus electricus (Electric eel)” (Nutrients, 2014).
# Amino acid sequences for entries named in this document (tags omitted). Residues count along the entry.
# UniProt O42275, 24-633: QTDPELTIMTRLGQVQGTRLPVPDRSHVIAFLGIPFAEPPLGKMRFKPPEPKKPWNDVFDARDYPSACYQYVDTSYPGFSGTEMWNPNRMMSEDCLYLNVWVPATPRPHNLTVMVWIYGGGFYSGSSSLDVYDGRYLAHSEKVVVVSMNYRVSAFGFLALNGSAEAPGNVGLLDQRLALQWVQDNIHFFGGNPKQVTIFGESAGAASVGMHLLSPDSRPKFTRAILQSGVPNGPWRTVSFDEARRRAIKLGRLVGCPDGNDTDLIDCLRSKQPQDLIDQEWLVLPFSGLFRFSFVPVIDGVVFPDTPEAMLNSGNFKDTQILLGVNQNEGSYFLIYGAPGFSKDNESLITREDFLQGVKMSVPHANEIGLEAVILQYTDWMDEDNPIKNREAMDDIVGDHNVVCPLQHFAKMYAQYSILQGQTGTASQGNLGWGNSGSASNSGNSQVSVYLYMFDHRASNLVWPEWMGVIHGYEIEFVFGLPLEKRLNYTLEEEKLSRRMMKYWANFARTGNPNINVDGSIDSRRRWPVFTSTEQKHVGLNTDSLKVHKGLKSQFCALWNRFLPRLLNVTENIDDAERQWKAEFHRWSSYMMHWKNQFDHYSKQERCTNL
# Target: acetylcholinesterase (AChE) from Electrophorus electricus (electric eel) (Electrophorus electricus, UniProt O42275)
# Assay: Ellman assay, […] nm
# Format: biochemical
# Conditions: acetylthiocholine iodide (0.476 μM as printed), pH 8.0, 37 °C, 5 min pre-incubation
substance,measurement,value
Methylcardol,IC50,5 ± 0.41 µM
